Measurements: article PMC8141644

Target: EGFR-ECD (UniProt P00533)
Assay: BLI
Conditions: bispecific antibody

Kd: 21 nM
Substance: bispecific hdFEB4-1-4×hNKE14-8 (from UniProt P01857)
